# Source: PMC2886105, “Assay Strategies for the Discovery and Validation of Therapeutics Targeting Brugia pahangi Hsp90” (PLoS Neglected Tropical Diseases, 2010)
# Test system: adult B. pahangi
# Test: Condition and activity of adult B. pahangi worms in vitro
# Design: species or system Brugia pahangi
smiles,measurement,value
"COC1=C2C[C@@H](C)C[C@H](OC)[C@H](O)[C@@H](C)/C=C(\C)[C@H](OC(N)=O)[C@@H](OC)/C=C\C=C(/C)C(=O)NC(=CC1=O)C2=O [GA, geldanamycin]",concentration of drug required to kill adult Brugia,500 nM
